Publication PMC5164944 (Biochemical pharmacology, 2016)

Test: Interconversion of bupropion enantiomers in HLM incubations
Assay type: in vitro ADME, human
Conditions: 5 minutes, 37°C

| SMILES | interconversion of S- and R-bupropion in the incubations |
| --- | --- |
| C[C@@H](NC(C)(C)C)C(=O)c1cccc(Cl)c1 [R-Bupropion, R-bupropion, reference compound] | < 5% |
| C[C@H](NC(C)(C)C)C(=O)c1cccc(Cl)c1 [S-Bupropion, S-bupropion, reference compound] | < 5% |
